Earlier results on one compound are cited in patent US8518957B2, “Methanocarba adenosine derivatives, pharmaceutical compositions, and method of reducing intraocular pressure” (The United States of America, as represented by the …, priority 2009, dated 2013).

Protein sequences, listed by entry. Tags and fused reporters are not part of them.
UniProt P0DMS8, whole entry: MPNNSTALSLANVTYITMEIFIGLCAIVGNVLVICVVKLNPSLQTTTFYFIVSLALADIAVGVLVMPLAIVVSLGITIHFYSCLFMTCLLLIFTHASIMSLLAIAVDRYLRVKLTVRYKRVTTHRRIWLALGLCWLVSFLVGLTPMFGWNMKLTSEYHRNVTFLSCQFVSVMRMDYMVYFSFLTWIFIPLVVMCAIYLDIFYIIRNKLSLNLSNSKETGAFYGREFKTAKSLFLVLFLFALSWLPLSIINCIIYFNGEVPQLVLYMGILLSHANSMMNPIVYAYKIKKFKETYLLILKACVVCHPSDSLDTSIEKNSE

The data set concerns the target human A3AR (Homo sapiens, UniProt P0DMS8). Particulars: at 10 μM, relative to NECA 10 μM; values from Tosh et al.; cited from earlier work.

Turning to `CNC(=O)[C@@]12C[C@@H]1[C@@H](n1cnc3c(NCc4cccc(Cl)c4)nc(C#CCCC(=O)NCCNC(=O)CCCCCNC(=O)CCCC[C@@H]4SC[C@@H]5NC(=O)N[C@@H]54)nc31)[C@H](O)[C@@H]2O`, the “% Inhibition of cAMP formation at hA3 AR” value is reported as 107 ± 18%.
